Experimental data: patent US10029993B2, “Disubstituted 1, 2, 4-triazine compound” (MITSUBISHI TANABE PHARMA CORPORATION, priority 2014, dated 2018)

Sequences of proteins named here, by UniProt entry; tags and fusion partners are left off. Residues count along the entry.
UniProt P19099, 25-503 limits assumed: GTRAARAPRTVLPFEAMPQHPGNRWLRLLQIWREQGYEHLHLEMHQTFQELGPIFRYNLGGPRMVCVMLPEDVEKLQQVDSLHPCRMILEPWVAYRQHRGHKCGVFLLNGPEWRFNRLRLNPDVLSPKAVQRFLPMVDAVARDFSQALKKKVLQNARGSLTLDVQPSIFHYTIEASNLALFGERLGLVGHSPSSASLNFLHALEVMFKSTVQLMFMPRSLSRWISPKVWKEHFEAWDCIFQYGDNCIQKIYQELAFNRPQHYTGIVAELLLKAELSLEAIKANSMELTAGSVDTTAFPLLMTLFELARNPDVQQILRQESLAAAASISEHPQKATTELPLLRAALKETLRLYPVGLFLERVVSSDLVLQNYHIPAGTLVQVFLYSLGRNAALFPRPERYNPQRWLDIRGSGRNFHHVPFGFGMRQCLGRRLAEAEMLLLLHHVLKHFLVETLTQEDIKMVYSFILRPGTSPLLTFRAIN

Biological target: human CYP11B2 (Homo sapiens (Human), UniProt P19099)
Experiment: Inhibitory effect on hCYP11B2 (aldosterone production by mitochondrial fraction of V79 cells stably expressing human CYP11B2, HTRF)
Details: read-out: hCYP11B2 IC50, 0.5 μmol/L deoxycorticosterone, 150 μmol/L NADPH, 1.5-2 hours at room temperature

Compound | IC50
CC(=O)N[C@H]1CC[C@H](NC(=O)CN2CCN(c3nncc(-c4ccc(F)cc4)n3)CC2)CC1 | 4.9 nM
CC(=O)N[C@@H]1CCC[C@H](NC(=O)CN2CCN(c3nncc(-c4ccc(F)cc4)n3)CC2)C1 (relative stereo) | 11 nM
